Patent US20240358732A1, “Use of Rutin and Rapamycin in the Preparation of Synergistic Chemotherapy Drugs for Tumor Inhibition” (priority 2023, published 2024)

Test system: SASP factors
Assay: qRT-PCR of typical SASP factors in BLEO-induced senescent PSC27 cells
Assay type: cell-based, human

N[C@@H](Cc1ccc([N+]([O-])(CCCl)CCCl)cc1)C(=O)O
expression of p16^INK4A and p21^CIP1: remain unaffected
expression of typical SASP factors: significantly decrease
